# Yeast mating assay 1: variants of the scFv Ab-14

The target is the same throughout: PDVDLGDISGINAS, from the HR2 region of SARS-CoV-2 spike.

Parent: Ab-14, a human scFv built as VH, a 15-residue (Gly4Ser)3 linker, VL. Only the CDRs of the light chain vary.
VH: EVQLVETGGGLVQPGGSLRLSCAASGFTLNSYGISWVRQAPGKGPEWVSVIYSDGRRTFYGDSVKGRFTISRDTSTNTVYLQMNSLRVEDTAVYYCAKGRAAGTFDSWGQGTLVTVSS
VL: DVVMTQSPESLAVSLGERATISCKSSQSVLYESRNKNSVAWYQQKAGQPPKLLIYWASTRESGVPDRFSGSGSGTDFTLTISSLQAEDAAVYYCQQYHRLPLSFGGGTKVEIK

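The parent was found by panning a naive human phage display library on the peptide. AAYL50 was designed without a model: most single CDR substitutions and a random sample of double and triple ones. The scFvs were displayed on barcoded MATa yeast, the peptide on MATalpha yeast. Pairs that bind mate more often; barcode pairs of the diploids are counted by sequencing. The ratio of observed to expected reads was calibrated, replicate by replicate, on BCL2-family standards whose Kd was known from biolayer interferometry. Each pool was mated in three replicate cultures.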

Each variant is given by its three light chain CDRs, as the data file delimits them; those of the parent are KSSQSVLYESRNKNSVA, WASTRES, QQYHRLPLS.
Each Kd is an estimate from the mating assay, the geometric mean of the replicates in which the pair was seen; lower is stronger.
"no signal" marks a missing value. The strain was present, yet no cells mated with the target were sequenced in any replicate, which points to weak or no binding.
Background: pairings of library AAYL50 with three empty control strains gave a value in 18% of cases (median 15 µM, 5th percentile 970 nM). Values in that range, when seen in few replicates, are hard to tell from nonspecific mating.

CDR-L1	CDR-L2	CDR-L3	apparent Kd	detected
KSSQSVLYESRNKNIVA	WASTRES	QQYSRLPKS	no signal	0/3
KSSQSVLYESRNKNSVA	WASTKES	QQYHRAPLS	610 nM	3/3
KSSQSVLYESRNKGSVA	WVSTRES	QQYHHLPLS	25 nM	3/3
KSSQEVTYESRNKNSVA	WASTRES	QQYHDLPLS	no signal	0/3
KSSQSVLYESCNKNSVA	CASTRES	QQYHRLPRS	no signal	0/3
KSPQSVLYESRNKNSVA	WASTRES	QQYWRLPES	7.1 nM	3/3
KSSQSVLYENRMKNSVA	WASTRES	QQYHRLPRS	20 nM	3/3
KSSQSVLYESRNKNSVA	WASGRES	QQYHYLPLS	3.2 µM	1/3
KSSQSVLYESRNLNSVA	WASTRES	QQIHRLSLS	no signal	0/3
KSSQSVLYESREKNSVA	WASLRES	QQYHRKPLS	5.3 nM	3/3
KSSQSGLYESRNKNSVA	WASTREQ	QQYHELPLS	no signal	0/3
KSSQSVLYENRMNNSVA	WASTRES	QQYHRLPLS	16 nM	3/3
KSSQSVLYESRNKNSVA	WAYTREM	QQYHRLPLS	27 nM	3/3
KSSQSVLHESRNENSVA	WASTRES	QQYCRLPLS	12 nM	3/3
KSRQSVLYESGNKNSVA	WASSRES	QQYHRLPLS	610 nM	3/3
KSSQSVLYESRFKNAVA	WTSTRES	QQYHRLPLS	120 nM	3/3
KSSQSVLYESRNKNSVD	WASTRES	QQYVRLPGS	no signal	0/3
KSSQSVLYESRNKNSVW	WASTRES	QQIHKLPLS	37 µM	1/3
KSSQKELYELRNKNSVA	WASTRES	QQYHRLPLS	19 nM	3/3
KSSQSVLYESRCKNSVA	WASEPES	QQYHRLPLS	5.2 µM	2/3
KSSQSVLYESRNKSSVA	WAFTRES	QQFHRLPLS	61 nM	3/3
KSSPSVLYESRNKNSVA	WASTREA	YQYHRLPLS	7.6 nM	3/3
KSSQSVLFESRNKNSVA	WASPRES	QIYHRLPLS	120 µM	1/3
KDSQSVLYESRNKNTVA	WASTSES	QQYHRLPLS	no signal	0/3
KISQSVLYESRNKNSVA	WASTRES	QQLHRLPIS	no signal	0/3
KSSQSVLYESRNKNDVL	WASTRES	QQYHRLPLS	no signal	0/3
KSSQSVLYESRNKNSVA	WACVRES	QCYHRLPLS	5.7 µM	2/3
KSSQSVLYESRFKNSVA	HASTRES	QQSHRLPLS	3.2 µM	1/3
KLSQSVTYEHRNKNSVA	WASTRES	QQYHRLPLS	17 nM	3/3
KSSQSVLYESRDKNIVA	WASTRES	EQYHRLPLS	no signal	0/3
KSSQSVLYESRRKNSVA	CASTPES	QQYHRLPLS	no signal	0/3
KSWTSVLYESRNSNSVA	WASTRES	QQYHRLPLS	53 nM	3/3
KSSQSVLYESRNNNSVM	WASTRES	QQYHRLPTS	31 µM	3/3
KSSQSKLYESRNKNSVA	WASTRES	QQYYRLPPS	no signal	0/3
KSSQSVLDEPRNKNSVA	WASTRES	QQYHRLPLS	240 nM	3/3
KSSLSVLYESRNKNSVA	WASTYES	QQYHRLPLS	2.3 µM	2/3
KSSCSVSYESRNKNSEA	WASTRES	QQYHRLPLS	no signal	0/3
KSCQSVLYESRNKNSVA	WASTRDM	QQYHRLPLS	no signal	0/3
KSQQSVLYHSRNKNSVA	WASTRES	QQYHRLPCS	36 µM	2/3

Further variants, results first:

apparent Kd	detected	CDR-L1	CDR-L2	CDR-L3
6.6 µM	1/3	KSSQPVLYESRNKNSVA	WLSMRES	QQYHRLPLS
520 nM	3/3	KASQSVLDESRNKNRVA	WASTRES	QQYHRLPLS
no signal	0/3	QSSQSMLYESRNKNSVI	WASTRES	QQYHRLPLS
390 nM	3/3	KSSQHVLNRSRNKNSVA	WASTRES	QQYHRLPLS
no signal	0/3	KSSQSVLYYSFNKNSVA	WASTRES	QQYHRLPDS
260 nM	1/3	KSSQGVLYESRNKNSVA	WAETHES	QQYHRLPLS
no signal	0/3	KSSQSVAYESRNKNSVG	WASTRES	QQAHRLPLS
20 µM	2/3	KSSQSVLYESRNKMSVA	WASTRWS	QQYHRLYLS
44 µM	1/3	KSSQSVLYESRNKNSDA	WASTRES	QQYHRLMLS
99 nM	2/3	KSSQSVLYESRNKNGVA	WASTRES	QQIHRLPVS
130 nM	3/3	KFSQSVLYESRNQNSVA	WASTRES	QQYHRHPLS
no signal	0/3	KTSQSHLYESRNKNSVA	WASTRES	QLYHRLPLS
570 nM	3/3	KSSQSVLYESRNKNSVA	WASTRVS	DQNHRLPLS
2.0 µM	1/3	KSSQSVLYESRNKNSVH	WASTRES	QQSHRLPLS
no signal	0/3	KSSQSVLYESRNKNSVA	WESTRES	RLYHRLPLS
4.3 nM	3/3	KSSQSVLYESSNKNSVA	WAYARES	QQYHRLPLS
no signal	0/3	VSSQSVLYESRNKNSVA	PASTRES	QQYHRLNLS
6.6 µM	2/3	KSSQSVLYQSRIKNSVA	WASTRES	QQYHRSPLS
no signal	0/3	KSSQSVLYESRNKNSVA	WASTRES	QDYHMLWLS
7.9 µM	2/3	KSSQDVLYCSRNKNSVA	WASTRES	QQYHRLPLK
590 nM	3/3	KSSQSVLYESRNKNSLA	WASTTES	QQYHRLPLS
no signal	0/3	KSSQSVLYESRFKNSVV	WASTRES	QQYHRLPLS
65 nM	3/3	KSSQSVLYESKNKNSVA	WASTRES	QTYHRLSLS
500 nM	3/3	KSIQSPLYESRNKNSVA	WASTRES	QQYHRLPLF
no signal	0/3	KSSQSVLYESRNKYSVA	WASTRES	QQLHRLQLS
190 µM	2/3	KSSQSVLYESRNKNSVA	WSSTRES	QQYHRPHLS
960 nM	3/3	KSSQSVLYESRFKWSVA	WASTRQS	QQYHRLPLS
81 µM	2/3	KESQSVLYESRNKISVA	WASTRES	QQYHRLPLS
no signal	0/3	KSSQSVLYESRNKNQVV	WASLRES	QQYHRLPLS
41 nM	3/3	KSSQSVLYESFNKNFVA	WASTKES	QQYHRLPLS
260 nM	3/3	KSSQSVLREFRNKNSVA	WASTREV	QQYHRLPLS
850 nM	3/3	KPSQSVKYESREKNSVA	WASTRES	QQYHRLPLS
2.6 nM	3/3	KSSQSVLYESRNKNSVA	HAVTRES	QQYHHLPLS
no signal	0/3	KSSQSVLYESRNKLSVT	WASTREM	QQYHRLPLS
31 nM	3/3	KSSQSPLYDSRNKNSVA	WASTRES	QQYHFLPLS
no signal	0/3	KSSQSVLYESRNKNSTA	WCSTRES	QQYHRLPLS
no signal	0/3	PSSQSVLYESRNKNSVA	WCSTRYS	QQYHRLPLS
no signal	0/3	KSSQSVLYESRNKNSVA	WAVERES	QQYHRLSLS
9.5 nM	3/3	KSSQSVTWESRNKNSVA	WASTRES	QQYHRLPSS

Extract of 5 entries:

CDR-L1	CDR-L2	CDR-L3	apparent Kd	detected
KISQSVLYESRNKNSVA	WASTRES	QQLHRLPIS	no signal	0/3
KSSQSVLYESRNKNSLA	WASTTES	QQYHRLPLS	590 nM	3/3
KSSQSVLYESSNKNSVA	WAYARES	QQYHRLPLS	4.3 nM	3/3
KSSQSVLYESCNKNSVA	CASTRES	QQYHRLPRS	no signal	0/3
KSSQSVLYESRNKNIVA	WASTRES	QQYSRLPKS	no signal	0/3

Data: MIT Lincoln Laboratory AlphaSeq set, Engelhart et al. 2022, doi:10.1038/s41597-022-01779-4, as distributed in FLAb.